Results on 1 molecule are retold here after patent US20150322033A1, “ANTIBACTERIAL AGENT” (priority 2012, published 2015).

One test deals with S. aureus Mu50. Particulars: Example 1, Tables 1 to 10.
The subject of test [1] is S. aureus FDA209P (ATCC 6538P). Particulars: Example 1, Tables 1 to 10.

Structures are written as SMILES.

Take `COc1cc(-c2[o+]c3cc(O)cc(O)c3cc2O)ccc1O` [compound 129]: the “MIC (mg/L) Mu50” value in the test on S. aureus Mu50 is on record as 128 mg/L. Further, the “MIC (mg/L) FDA209P” value in test [1] came to 128 mg/L.
